The structures appear in SMILES notation. Some of the results follow.

In the experiment the test system is A. baumannii ATCC 17978. Briefly: relative growth (fraction of control); higher = less inhibition. As to conditions: 50 µM.
Turning to `COc1ccc(-c2coc3cc(OC)cc(OC)c3c2=O)cc1`, the relative growth amounted to 1.09.

Regarding `N[C@@H](CSCc1ccccc1Cl)C(=O)O`, the relative growth was found to be 0.997. Next, `CN1CCN(C(=O)C[C@@H]2CC[C@@H]3[C@@H](COc4ccc(NC(=O)C5CCCCC5)cc4C(=O)N3C)O2)CC1`: 1.09. Next, `O=C(COc1ccc(Cl)cc1Cl)NCCn1ncc2c(=O)n(Cc3cccc([N+](=O)[O-])c3)cnc21`: 0.884; `Cl.Clc1cccc(Cl)c1N=C1NCCN1`: 1.09. Next, `O=C1O[C@H](c2ccccc2)[C@H](c2ccccc2)N2[C@H]1[C@@H](C(=O)O)[C@]1(C(=O)Nc3ccc(C#CC4=CCCCC4)cc31)[C@H]2c1ccc(O)cc1`: 1.24; `O=C(O)C1(c2cccs2)CCCC1`: 0.873. With `O=C(CCCCC(=O)N/N=C/[C@H](O)[C@@H](O)[C@@H](O)[C@H](O)CO)NO`, the relative growth is 0.743. `CS(=O)(=O)SCCN`: the relative growth amounted to 0.862.

`C[C@@H](O)C#Cc1ccc2c(c1)O[C@H](CN(C)C)[C@@H](C)CN([C@@H](C)CO)S2(=O)=O`: the relative growth stood at 0.897. Regarding `COc1ccc(C2CNC(=O)C2)cc1OC1CCCC1` (stereo not drawn), the relative growth came out at 1.01.

Compound `O=c1c(O)c(-c2ccc(O)cc2O)oc2cc(O)cc(O)c12` showed a relative growth of 0.992. With `COc1nsnc1N1CCOCC1` the figure was 1.17. Compound `CN1CCN(C(=O)C[C@@H]2CC[C@H]3[C@@H](COC[C@H](O)CN3C(=O)C3CC3)O2)CC1` gave a relative growth of 0.961. `COCC#Cc1ccc2c(c1)O[C@H](CN(C)C(=O)Nc1ccccc1F)[C@@H](C)CN([C@@H](C)CO)S2(=O)=O` registered a relative growth of 0.977. Next, `CCc1ccc(NC(=O)C2CCN(S(=O)(=O)c3c(C)[nH]c(=O)[nH]c3=O)CC2)cc1`: 1.12. With `CN(C)CCCN1c2ccccc2Sc2ccc(C(F)(F)F)cc21.Cl` the figure was 0.167. Next, `C[C@@H]1CNC(=O)CO1`: 1.18. `Cn1c(=O)cc(N2CCCC(N)C2)n(Cc2ccccc2C#N)c1=O.O=C(O)c1ccccc1` (stereo not drawn) yielded a relative growth of 1.32. In turn, `O=C(O)[C@@H](O)Cc1ccc(O)c(O)c1` came in with a relative growth of 0.843. Compound `O=C(NO)c1cccc(C(=O)N/N=C/[C@H](O)[C@H](O)[C@@H](O)[C@@H](O)CO)c1` returned a relative growth of 1.12. With `CC(C)NC(=O)N[C@H]1C=C[C@H](CC(=O)NCCN2CCCC2)O[C@@H]1CO` the figure was 0.941; with `C#C[C@]1(O)CCC2C3CCc4cc(OC)ccc4C3CC[C@@]21C` (stereo partly drawn), 1.21; with `COCCNC(=O)C[C@@H]1C[C@H]2c3cc(NS(C)(=O)=O)ccc3O[C@H]2[C@H](CO)O1`, 1.03.

`Cl.OC(c1cc(C(F)(F)F)nc2c(C(F)(F)F)cccc12)C1CCCCN1` (stereo not drawn) had a relative growth of 0.156. In turn, `Cc1ccccc1C(OCCN(C)C)c1ccccc1.O=C(O)CC(O)(CC(=O)O)C(=O)O` (stereo not drawn) yielded a relative growth of 0.926. Next, `Cc1cc(SC(=O)N/C=C/c2ccco2)c(C)cc1Cl`: 1.19; `COc1cc(-c2coc3cc(O[C@@H]4O[C@H](CO)[C@@H](O)[C@H](O)[C@H]4O)c(OC)c(O)c3c2=O)cc(O)c1OC`: 1.18; `O=C(C[C@@H]1CC=CCC[C@@H](Cc2ccc(F)cc2)C(=O)OC[C@@H](Cc2c[nH]c3ccccc23)NC1=O)N[C@@H](CO)Cc1ccccc1`: 0.943.

The compound `Cc1c(O)c(=O)ccn1C` gave a relative growth of 0.822.

In the case of `NC(=O)N1C(=O)[C@H]2[C@H](C1=O)[C@H]1C=C(CCCO)[C@@H]2[C@H](c2ccc(CN3CCCC3)cc2)N1Cc1sc2ccccc2c1Cl`, the relative growth came out at 1.05. With `C[C@@H]1CN([C@@H](C)CO)S(=O)(=O)c2ccc(C#Cc3cccc(F)c3)cc2O[C@H]1CN(C)S(=O)(=O)c1ccccc1F` the figure was 1.15; with `COc1cccc(NC(=O)N2C[C@H](O)COC[C@@H]3O[C@@H](CC(=O)NCc4ccccc4F)CC[C@H]32)c1`, 0.87. With `O=S(=O)(O)c1cc(O)ccc1O` the figure was 1.02. For `Cn1c(N)c(S(=O)(=O)N2CCCC[C@@H]2c2cccnc2)c(=O)n(C)c1=O`, the relative growth stood at 1.02. With `CC(=O)O[C@]1(C(C)=O)CCC2C3C[C@H](C)C4=CC(=O)CC[C@]4(C)C3CC[C@@]21C` (stereo partly drawn) the figure was 1.07. With `O=S(=O)(c1ccccc1)N1CCN(CCO)CC1` the figure was 1.03; with `COc1ccc(CNC(=O)C[C@@H]2C[C@H]3c4cc(NS(=O)(=O)c5ccc(F)cc5)ccc4O[C@H]3[C@@H](CO)O2)cc1`, 0.919; with `CCC(=O)O[C@]1(C(=O)CCl)[C@@H](C)C[C@H]2[C@@H]3CCC4=CC(=O)C=C[C@]4(C)[C@@]3(F)[C@@H](O)C[C@@]21C`, 0.942. With `NS(=O)(=O)c1ccc(NC(=O)[C@H]2CCCNC2=O)cc1` the figure was 0.952; with `O=C1C[C@@H](c2ccc(O)cc2)Oc2cc(O)cc(O)c21`, 0.986; with `Nc1ccc(C(=O)[O-])c(O)c1.[Na+]`, 0.926. `COC(=O)C1CCN(S(=O)(=O)c2c(C)n(C)c(=O)n(C)c2=O)CC1`: the relative growth was found to be 1.11. Turning to `CCc1ccc(Nc2c3c(nc4ccccc24)CCC3)cc1`, the relative growth came out at 0.135. As to `CSC1=N[C@@]2(C)CCCC[C@@H]2c2c1ccc1ccccc21`, the relative growth amounted to 0.931. With `C/C1=C/[C@@]23O[C@@]2(C[C@H](C)[C@H]3O[C@H]2O[C@@H](CO)[C@@H](O)[C@@H](O)[C@@H]2O)C(=O)[C@H](C)[C@H](O)[C@@H]2C([C@H](O)[C@@H]1O)C2(C)C` (stereo partly drawn) the figure was 1.13; with `Cc1cc(-c2ccccc2)nnc1NCCN1CCOCC1.Cl.Cl`, 1.15. Compound `O=C(NCCn1ncc2c(=O)n(Cc3ccccc3)cnc21)c1ccc(S(=O)(=O)N2CCOCC2)cc1` registered a relative growth of 1.08. With `NNC(=O)c1cccc(C(F)(F)F)n1` the figure was 1.03; with `COc1cccc(S(=O)(=O)Nc2ccc3c(c2)OC[C@@H](C)N(C(=O)Cc2cccnc2)C[C@@H](C)[C@@H](OC)CN(C)C3=O)c1`, 1; with `CN(C)CC(=O)N[C@@H]1CC[C@H](CCNC(=O)C2CCC2)O[C@@H]1CO`, 1.13. With `NC(=O)c1ccc([N+](=O)[O-])cc1Cl` the figure was 1.05; with `O=C(N[C@H]1C=C[C@@H](CC(=O)N2CCOCC2)O[C@H]1CO)c1ccccn1`, 1.11; with `O=C1OCCN1/N=C/c1ccc([N+](=O)[O-])o1`, 0.322. Consider `C=CCOC(=O)[C@@H]1[C@H]2C(=O)O[C@H](c3ccccc3)[C@H](c3ccccc3)N2[C@H](c2ccc(OCCOC(=O)[C@H]3C[C@H]4C(=O)N[C@@H](Cc5ccccc5)C(=O)N4[C@H]3c3ccc(O)cc3)cc2)[C@@]12C(=O)Nc1ccc(I)cc12`, for which the relative growth was 1.57. Next, `O=C(Nc1ccc(Oc2ccc(Cl)cc2)c(Cl)c1)c1cc(I)cc(I)c1O`: 1.41; `C[C@H]1CN([C@@H](C)CO)C(=O)Cc2cc(NC(=O)Nc3ccc(C#N)cc3)ccc2O[C@H]1CN(C)S(=O)(=O)c1ccc(Oc2ccccc2)cc1`: 0.858. The compound `CCCN1C[C@H](C)[C@@H](OC)CN(C)C(=O)c2ccc(NS(=O)(=O)c3cn(C)cn3)cc2OC[C@H]1C` registered a relative growth of 1.02.

Consider `O=c1[nH]c(=O)n(Cc2ccccc2)c2nc[nH]c12`, for which the relative growth was found to be 0.891. The compound `CS(=O)(=O)Nc1ccccc1O` yielded a relative growth of 0.953. With `CN(C)CCCNC(=O)C[C@H]1C=C[C@H](NS(=O)(=O)c2ccccc2)[C@@H](CO)O1` the figure was 1.02. Next, `CC(C)(C)NC(=O)[C@H]1CCC2C3CCC4NC(=O)C=C[C@]4(C)C3CC[C@@]21C` (stereo partly drawn): 1.01. For the compound `COc1ccc(CCNC(=O)[C@@]2(Cc3ccccc3I)c3ccccc3C(=O)N(Cc3ccccc3OC)[C@H]2c2ccc(CO)cc2)cc1`, the relative growth is 1.11. Compound `COCC(=O)N[C@H]1C=C[C@H](CC(=O)N2CCCCC2)O[C@H]1CO` registered a relative growth of 1.06. `O=C(C[C@@H]1C[C@@H]2c3cc(NC(=O)c4ccc5c(c4)OCO5)ccc3O[C@@H]2[C@@H](CO)O1)NCc1ccccn1` showed a relative growth of 1.12.

Take `O=C(CSc1nnc[nH]1)C1CC1`: the relative growth stood at 0.921. The compound `N[C@H](C(=O)O)[C@H](O)c1ccc(O)c(O)c1` showed a relative growth of 0.891. With `Cc1ccc(O)cc1` the figure was 0.936; with `CN(C)c1nc(N(C)C)nc(N(C)C)n1`, 0.947; with `C=C(O)C(=O)O`, 0.977. With `NC(=O)NC(=O)C[n+]1ccc(/C=N/O)cc1` the figure was 0.926; with `C[C@@H]1CN([C@H](C)CO)S(=O)(=O)c2ccc(C3=CCCC3)cc2O[C@H]1CN(C)C(=O)C1CCOCC1`, 1.12. Compound `C[C@H](NC(=O)C[C@@H]1CC[C@H](NC(=O)CN2CCOCC2)[C@@H](CO)O1)c1ccccc1` had a relative growth of 0.973. On to `Cc1ccc2nc(-c3ccc(NC(=O)C4CCC4)cc3)sc2c1`, for which the relative growth was determined as 1.04. Compound `COc1ccc(Cn2cc[nH]c(=O)c2=O)cc1` displayed a relative growth of 1.05. Next, `CC[N+](CC)(CC)CCOc1cccc(OCC[N+](CC)(CC)CC)c1OCC[N+](CC)(CC)CC.[I-].[I-].[I-]`: 0.991; `N=C(C[n+]1ccccc1)NO`: 0.906.

On to `O=C(O)c1cc(-c2ccccc2)nc2ccccc12`, for which the relative growth was 0.916.

`Cc1cccc(S(=O)(=O)N2C[C@@H](O)COC[C@H]3O[C@@H](CC(=O)NCCCN4CCOCC4)CC[C@@H]32)c1`: the relative growth worked out at 1.01. `Oc1cc(C2CCCCC2)cc(C2CCCCC2)c1` came in with a relative growth of 1.06.

Regarding `NCC(=O)NCC(=O)O`, the relative growth was 1.05.

The compound `CCOC(=O)[C@H]1CC(C)=NNC1=O` displayed a relative growth of 0.977. Turning to `O=C(NCC(=O)N1CCOCC1)c1ccccc1`, the relative growth was found to be 1.17.

`CCNC(=O)C[C@H]1CC[C@@H](NC(=O)C2CC2)[C@H](CO)O1` showed a relative growth of 0.947. Next, `Cc1ccc(S(=O)(=O)N2C[C@@H](O)COC[C@@H]3O[C@H](CC(=O)NCc4ccc(Cl)c(Cl)c4)CC[C@H]32)cc1`: 0.877; `COc1ccc2c(c1)[n+]([O-])c1c([n+]2[O-])CCC1`: 0.943. For the compound `O=C(O)c1cc(O)[nH]c(=O)c1`, the relative growth turned out to be 0.911. Next, `O=C(CCCCCC(=O)N/N=C/[C@H](O)[C@@H](O)[C@H](O)[C@H](O)CO)NO`: 0.965; `C=CCNC(=O)[C@H]1CCCN(S(C)(=O)=O)C1`: 0.923. Take `CC(C)CN1C(=O)[C@@]2(Cc3ccccc31)c1ccccc1C(=O)N(Cc1ccccc1)[C@H]2c1ccc(CO)cc1`: the relative growth is 0.956. Next, `CN(C)S(=O)(=O)Nc1cccc(N)c1`: 0.647; `CC/C(=C(\c1ccccc1)c1ccc(OCCN(C)C)cc1)c1ccccc1.O=C(O)CC(O)(CC(=O)O)C(=O)O`: 0.641; `C[C@@H](N)CCc1ccc(Br)cc1`: 0.953.

For the origin of these results see published antibiotic growth screens (doi:10.1038/s41589-023-01349-8).
